E-sel inducer: E-selectin induction in HUVECs, primary screen, imaging, HUVEC, immunofluorescence imaging, single point; normalized: neutral wells 0, TNF-alpha wells 100; actives 0.37% (n = 260,000); activation, % at 7.58 µM;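 active means mean E-selectin-positive cell signal at least 10% of the positive control, reached in at least 60% of replicates, without over 20% cell loss; inconclusive means no rule given, readout overlaps actives, possibly toxicity-flagged; inactive means the rest, including those meeting only one limit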
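Material: HUVEC primary endothelial cells; Amount: 3,000 cells per well; Dosing: single concentration; Medium: EGM-2 growth medium on 0.1% gelatin-coated wells; Read-out basis: percent E-selectin-positive cells; Signal: immunofluorescence imaging; Control set: TNF-alpha, DMSO.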
Cneo AK release: Cryptococcus neoformans cell lysis inducers, primary screen, AK release luminescence, single concentration. lysis activity, % at 15 µM. C. neoformans lysis, adenylate kinase release luminescence, 4 h; normalised: neutral wells 0, clomiphene wells 100. actives 0.2% (n = 360,000);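 active means mean lysis activity across replicates of at least 80%, whatever share of replicates individually reach that level; inactive means mean lysis activity below 80%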
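Test system: log-phase Cryptococcus neoformans yeast cells; Quantity: yeast cell density of 5 × 10^6 cells/mL; Buffer or medium: YPD; Doses: single compound concentration per well; Timing: 4 h at 37 °C static, read 1 h later; Measured by: AK luminescence; Read-out basis: lysis from increased AK signal; Control set: Clomiphene as positive control.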
DENV2 CPE rescue: inhibitors of DENV2 cytopathic effect, primary screen, cell-based, plate reader, single concentration; actives 1.7% (n = 350,000); CPE inhibition, % at 9.99 µM; DENV2-infected cells, cytopathic effect rescue; in the data active means CPE inhibition above about 20%, passing the limit was not always enough; inconclusive means no clear call, values can overlap the other calls; tested in BHK-21 cells;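 further: 0% = median of neutral control wells and 100% = median of positive control wells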
Yeast UUG start: modulators of yeast start codon fidelity, primary screen, whole organism, S. cerevisiae, single point, plate reader | AID 602363, 2012 | S. cerevisiae UUG-firefly luciferase reporter, luminescence/redox ratio | activity score, % at 18.7 µM | hit rate 0.13% among 350,000;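 active = replicate mean at a twofold rise or more, about +100% in these data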;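 also: firefly luciferase made from a UUG start codon reports start codon fidelity; reporter light over untreated wells divided by growth signal over untreated wells; some hits fall short of that in this replicate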
* = called active by the depositor; ? = inconclusive; . = no result given; ! = a repeat was not active. In the library only some 1.8% were active in any assay of this set; here they are far more common.

Abbreviations: A = E-sel inducer; B = Cneo AK release; C = DENV2 CPE rescue; D = Yeast UUG start
[1] CCCC#Cc1ccc([C@H]2[C@H]3CN(CC4CC4)CCCCN3[C@H]2CO)cc1
  A: 0 | B: 1 | C: -9 | D: -5
[2] C[C@H](O)C#Cc1ccc([C@H]2[C@H](CO)N3CCCCN(CC4CCOCC4)C[C@@H]23)cc1
  A: 0 | B: 98* | C: 14 | D: 34
[3] COCC#Cc1ccc([C@H]2[C@H]3CN(Cc4cncnc4)CCCCN3[C@H]2CO)cc1
  A: 0 | B: -3 | C: 21* | D: -8
[4] C[C@H](O)C#Cc1ccc([C@@H]2[C@H]3CN(CC4CCOCC4)CCCCN3[C@H]2CO)cc1
  A: 0 | B: 0 | C: -3 | D: 8
[5] C[C@@H](O)C#Cc1ccc([C@@H]2[C@H]3CN(CC4CC4)CCCCN3[C@H]2CO)cc1
  A: 0 | B: 115* | C: 9 | D: 24
[6] C[C@@H]1CN([C@@H](C)CO)C(=O)c2cc(NS(=O)(=O)c3ccccc3)ccc2O[C@H]1CN(C)C(=O)Nc1ccc(F)cc1
  A: 0 | B: -4 | C: -1 | D: .
[7] COc1ccc(S(=O)(=O)N(C)C[C@H]2OCCCC[C@H](C)Oc3ccc(NC(=O)Nc4ccc(C(F)(F)F)cc4)cc3C(=O)N([C@@H](C)CO)C[C@H]2C)cc1
  A: 0 | B: -4 | C: 10 | D: -17
[8] COc1ccc(NC(=O)N(C)C[C@H]2OCCCC[C@@H](C)Oc3ccc(NS(=O)(=O)c4ccc(Cl)cc4)cc3C(=O)N([C@@H](C)CO)C[C@@H]2C)cc1
  A: 1 | B: 2 | C: 6 | D: 7
[9] Cc1cccc(N2CCN(c3nc4ccc(Cl)cc4n4cnnc34)CC2)c1C
  A: 152* | B: 0 | C: -11 | D: -20
[10] CCOC(=O)C1=CN2CCC[C@H]2CC1=O
  A: 0 | B: -5 | C: 63* | D: -16
[11] C[C@H](CO)N1C[C@H](C)[C@@H](CN(C)C(=O)C2CC2)Oc2cc(-c3ccccc3F)ccc2S1(=O)=O
  A: 0 | B: -1 | C: -3 | D: -1
[12] C[C@H](CO)N1C[C@H](C)[C@@H](CN(C)Cc2cccnc2)Oc2cc(Br)ccc2S1(=O)=O
  A: 0 | B: -4 | C: 45*! | D: -6
[13] C[C@H]1CN([C@@H](C)CO)S(=O)(=O)c2ccc(Br)cc2O[C@H]1CN(C)Cc1ccc(F)cc1
  A: 0 | B: 1 | C: 41*! | D: -1
[14] Cc1ccc(-c2ccc3c(c2)O[C@@H](CN(C)Cc2ccc(F)cc2)[C@@H](C)CN([C@H](C)CO)S3(=O)=O)cc1
  A: 0 | B: 83* | C: 13 | D: 49
[15] C[C@@H]1CN([C@H](C)CO)S(=O)(=O)c2ccc(-c3ccc(F)cc3)cc2O[C@@H]1CN(C)CC1CC1
  A: 92* | B: -3 | C: 13 | D: 16
[16] CCNC(=O)C[C@H]1CC[C@H]2[C@@H](COc3ccc(NC(=O)Nc4c(C)noc4C)cc3C(=O)N2C)O1
  A: 0 | B: -1 | C: 5 | D: -10
[17] CC=Cc1ccc2n(c1=O)C[C@H]1[C@H](CO)[C@@H](C(=O)NCc3ccc(F)cc3)N(C)[C@@H]21 (mixture of isomers)
  A: 0 | B: -4 | C: -1 | D: .
[18] Cc1ccc(S(=O)(=O)N[C@H]2CC[C@@H](CCn3cc(-c4cccnc4)nn3)O[C@@H]2CO)cc1
  A: 3 | B: -19 | C: -3 | D: .
[19] Cc1ccc(C(=O)N/C(=C/c2cccs2)C(=O)NCCCn2ccnc2)cc1
  A: . | B: . | C: 31* | D: .
[20] O=C(NCCCn1ccnc1)/C(=C\c1cccs1)NC(=O)c1ccccc1
  A: . | B: 0 | C: . | D: -15
[21] C[C@@H]1CN([C@@H](C)CO)C(=O)Cc2cc(NC(=O)NC3CCCCC3)ccc2O[C@H]1CN(C)Cc1ccc(-c2ccccc2)cc1
  A: 1 | B: 2 | C: -22 | D: 8
[22] CC(C)NC(=O)Nc1ccc2c(c1)CC(=O)N([C@H](C)CO)C[C@H](C)[C@@H](CN(C)Cc1ccc(C(=O)Nc3ccccc3N)cc1)O2
  A: 0 | B: . | C: 13 | D: .
[23] C[C@@H]1CN([C@@H](C)CO)C(=O)Cc2cc(NC(=O)NC3CCCCC3)ccc2O[C@@H]1CN(C)Cc1ccc(Cl)c(Cl)c1
  A: -4 | B: 47 | C: 59* | D: -6
[24] C[C@H]1CN([C@@H](C)CO)C(=O)Cc2cc(NC(=O)NC3CCCCC3)ccc2O[C@@H]1CN(C)Cc1ccc(C(=O)Nc2ccccc2N)cc1
  A: . | B: . | C: 32* | D: .
[25] C[C@H]1CN([C@@H](C)CO)C(=O)Cc2cc(NC(=O)NC3CCCCC3)ccc2O[C@H]1CN(C)Cc1ccc(-c2ccccc2)cc1
  A: 4 | B: 1 | C: -25 | D: -3

Exported as labelled records: entries from further up
13	C[C@H]1CN([C@@H](C)CO)S(=O)(=O)c2ccc(Br)cc2O[C@H]1CN(C)Cc1ccc(F)cc1
- E-sel inducer = 0
- Cneo AK release = 1
- DENV2 CPE rescue = 41*!
- Yeast UUG start = -1
19	Cc1ccc(C(=O)N/C(=C/c2cccs2)C(=O)NCCCn2ccnc2)cc1
- E-sel inducer = .
- Cneo AK release = .
- DENV2 CPE rescue = 31*
- Yeast UUG start = .
24	C[C@H]1CN([C@@H](C)CO)C(=O)Cc2cc(NC(=O)NC3CCCCC3)ccc2O[C@@H]1CN(C)Cc1ccc(C(=O)Nc2ccccc2N)cc1
- E-sel inducer = .
- Cneo AK release = .
- DENV2 CPE rescue = 32*
- Yeast UUG start = .
23	C[C@@H]1CN([C@@H](C)CO)C(=O)Cc2cc(NC(=O)NC3CCCCC3)ccc2O[C@@H]1CN(C)Cc1ccc(Cl)c(Cl)c1
- E-sel inducer = -4
- Cneo AK release = 47
- DENV2 CPE rescue = 59*
- Yeast UUG start = -6

Further records:
Abbreviations: A = E-sel inducer; B = Cneo AK release; C = DENV2 CPE rescue; D = Yeast UUG start
[26] C[C@H](CO)N1C[C@H](C)[C@H](CN(C)Cc2ccc(-c3ccccc3)cc2)Oc2ccc(NC(=O)NC3CCCCC3)cc2CC1=O
  A: 1 | B: -1 | C: 22* | D: -5
[27] C[C@H]1CN([C@@H](C)CO)C(=O)Cc2cc(NC(=O)NC3CCCCC3)ccc2O[C@@H]1CN(C)Cc1ccc(-c2ccccc2)cc1
  A: 0 | B: -2 | C: 31* | D: -10
[28] C[C@@H]1CN([C@H](C)CO)C(=O)c2cc(NC(=O)Nc3ccccc3)ccc2O[C@H]1CN(C)Cc1ccncc1
  A: 0 | B: 57 | C: 2 | D: 8
[29] CN1C(=O)c2cc(NC(=O)Nc3ccccc3F)ccc2OC[C@@H]2O[C@@H](CC(=O)NCCc3ccncc3)CC[C@H]21
  A: 0 | B: . | C: . | D: .
[30] C[C@@H]1CN([C@H](C)CO)C(=O)Cc2cc(NC(=O)NC3CCCCC3)ccc2O[C@@H]1CN(C)Cc1ccccc1
  A: 0 | B: 92* | C: 14 | D: 14
[31] C[C@H](CO)N1C[C@H](C)[C@H](CN(C)Cc2ccc(C(=O)Nc3ccccc3N)cc2)Oc2ccc(NC(=O)Cn3cnnn3)cc2CC1=O
  A: -2 | B: . | C: 55* | D: .
[32] Cc1ccc(S(=O)(=O)NNC(=O)c2cccc(O)c2)cc1
  A: 73* | B: . | C: 2 | D: .
[33] CCC(c1nnnn1-c1c(C)cccc1C)N1CCN(C/C=C/c2ccccc2)CC1 (stereo not given)
  A: 1 | B: -5 | C: 106* | D: -4
[34] C[C@@H]1CN([C@@H](C)CO)C(=O)Cc2cc(NC(=O)NC3CCCCC3)ccc2O[C@H]1CN(C)CC1CC1
  A: -2 | B: -2 | C: 41* | D: -5
[35] CNC[C@H]1Oc2ccc(NC(=O)c3ccncc3)cc2CC(=O)N([C@@H](C)CO)C[C@@H]1C
  A: 0 | B: -2 | C: -4 | D: 0
[36] CNC[C@H]1Oc2ccc(NC(=O)C3CCCCC3)cc2CC(=O)N([C@H](C)CO)C[C@@H]1C
  A: 0 | B: -1 | C: 90*! | D: -30
[37] C[C@@H]1CN([C@H](C)CO)C(=O)Cc2cc(NC(=O)NC3CCCCC3)ccc2O[C@@H]1CN(C)CC1CC1
  A: -2 | B: 1 | C: -7 | D: -5
[38] C[C@@H]1CN([C@@H](C)CO)C(=O)Cc2cc(NC(=O)C3CCCCC3)ccc2O[C@H]1CN(C)CC1CC1
  A: 0 | B: -2 | C: 76* | D: 2
[39] CNC[C@H]1Oc2ccc(NC(=O)c3ccncc3)cc2CC(=O)N([C@H](C)CO)C[C@@H]1C
  A: 0 | B: -5 | C: 64* | D: 24
[40] C[C@H](CO)N1C[C@H](C)[C@@H](CN(C)CC2CC2)Oc2ccc(NC(=O)C3CCCCC3)cc2CC1=O
  A: 0 | B: 43 | C: ? | D: 1
[41] Cc1noc(C)c1NC(=O)N(C)C[C@@H]1Oc2ccc(NC(=O)c3ccncc3)cc2CC(=O)N([C@@H](C)CO)C[C@H]1C
  A: . | B: -2 | C: -3 | D: -7
[42] C[C@@H]1CCCCO[C@H](CN(C)C(=O)Cc2ccccc2)[C@@H](C)CN([C@H](C)CO)C(=O)c2cc(NC(=O)c3ccccc3)ccc2O1
  A: . | B: -1 | C: -2 | D: -7
